# Data taken from publication PMC4582187 (Journal of Cell Science, 2015).
# B1: GST-tagged mouse Rpn13 C-terminal region (Rpn13 150-407) (domain or fragment, UniProt Q9JKV1 150-407, looked up)
# chain: LGGEGGLQSLLGNMSHSQLMQLIGPAGLGGLGGLGALTGPGLASLLGSSGPPASSSSSSSRSQSAAVTPSSSTSSARATPAPSAPAAASATSPSPAPSSGNGTSTAASPTQPIQLSDLQSILATMNVPAGPGGSQQVDLASVLTPEIMAPILANADVQERLLPYLPSGESLPQTADEIQNTLTSPQFQQALGMFSAALASGQLGPLMCQFGLPAEAVEAANKGDVEAFAKAMQNNAKSDPKEGDTKDKKDEEEDMSLD
# notes: also called Rpn13 C-terminal domain; source: E. coli BL21 (pGEX-4T1), purified on Glutathione Sepharose 4B, kept on the resin
# Molecular target: T1, His Trx-SGTA fusion protein (wild type) (human, UniProt O43765 1-313)
# T1 construct: SGTA, human; also called His-tagged Trx-SGTA; source: expressed and purified as previously described (Leznicki et al., 2011)
# Experiment: pull-down; about 5 µg purified recombinant protein (released from GST by thrombin, or His Trx fusion) incubated with equivalent amounts of purified GST-tagged proteins on Glutathione Sepharose beads, 4 h at 4°C, 20 mM Tris-HCl pH 8.4, 150 mM NaCl, 2.5 mM CaCl2, 10% glycerol, 1% Triton X-100, 1 mM DTT; western blot
# Settings: both partners purified
binder,measurement,value
B1,binding result,binds
